The values below come from ChEMBL document CHEMBL1145093, “Synthesis and biological evaluation of 14-alkoxymorphinans. 20. 14-phenylpropoxymetopon: an extremely powerful analgesic” (2003).

The chains behind the UniProt entries cited, without tags or fusion partners.
UniProt P34975, whole entry: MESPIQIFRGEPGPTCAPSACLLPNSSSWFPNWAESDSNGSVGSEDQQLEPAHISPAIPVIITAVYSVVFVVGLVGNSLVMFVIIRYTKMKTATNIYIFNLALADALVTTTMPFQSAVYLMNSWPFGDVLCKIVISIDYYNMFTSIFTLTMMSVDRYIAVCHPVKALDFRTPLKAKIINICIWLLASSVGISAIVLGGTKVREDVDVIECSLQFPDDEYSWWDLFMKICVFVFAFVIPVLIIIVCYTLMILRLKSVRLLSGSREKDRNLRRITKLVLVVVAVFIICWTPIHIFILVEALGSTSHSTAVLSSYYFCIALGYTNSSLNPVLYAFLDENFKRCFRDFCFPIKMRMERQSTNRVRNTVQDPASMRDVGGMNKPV
UniProt P33533, whole entry: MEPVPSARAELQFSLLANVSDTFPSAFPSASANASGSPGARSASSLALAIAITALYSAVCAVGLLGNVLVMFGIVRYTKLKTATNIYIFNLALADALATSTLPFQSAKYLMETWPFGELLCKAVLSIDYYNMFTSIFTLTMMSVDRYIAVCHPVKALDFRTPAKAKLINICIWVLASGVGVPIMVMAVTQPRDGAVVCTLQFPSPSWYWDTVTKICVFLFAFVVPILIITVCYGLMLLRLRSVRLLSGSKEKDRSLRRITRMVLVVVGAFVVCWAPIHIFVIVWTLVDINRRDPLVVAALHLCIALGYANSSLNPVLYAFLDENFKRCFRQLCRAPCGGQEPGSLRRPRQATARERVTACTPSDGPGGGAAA
UniProt P33535, whole entry: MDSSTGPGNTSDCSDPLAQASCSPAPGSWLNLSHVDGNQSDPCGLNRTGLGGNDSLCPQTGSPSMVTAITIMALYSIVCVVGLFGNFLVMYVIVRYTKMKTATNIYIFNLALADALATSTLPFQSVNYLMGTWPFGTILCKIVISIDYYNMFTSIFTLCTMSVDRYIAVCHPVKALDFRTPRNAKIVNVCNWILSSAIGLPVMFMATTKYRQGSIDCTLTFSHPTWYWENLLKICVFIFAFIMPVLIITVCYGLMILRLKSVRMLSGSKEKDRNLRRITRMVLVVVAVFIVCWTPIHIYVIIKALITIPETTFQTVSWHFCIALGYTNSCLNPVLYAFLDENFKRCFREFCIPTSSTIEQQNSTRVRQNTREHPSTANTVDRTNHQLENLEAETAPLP

Experiment [1] deals with Kappa-type opioid receptor (Rattus norvegicus, UniProt P34975). Put plainly: Binding affinity against Opioid receptor kappa 1 isolated from rat brain membrane was determined using [3H]U-69593 as radioligand.
For experiment [2], the target named is Delta-type opioid receptor (Rattus norvegicus, UniProt P33533). Put plainly: Binding affinity against Opioid receptor delta 1 isolated from rat brain membrane was determined using [3H][Ile]-deltorphin as radioligand.
Another experiment has as its target Mu-type opioid receptor (Rattus norvegicus, UniProt P33535). As to the kind of experiment: Binding affinity against Opioid receptor mu 1 isolated from rat brain membrane was determined using [3H]DAMGO as radioligand.
In experiment [3] the test system is Mus musculus. Put plainly: In vivo antinociceptive potency determined in hot plate assay in mice. A general note: Hot-plate and tail-flick tests time the reaction to a heat stimulus.
Experiment [4] relates to Mus musculus. As to the kind of experiment: In vivo antinociceptive potency determined in tail-flick test in mice.
Experiment [5] deals with Mus musculus. As to the kind of experiment: In vivo antinociceptive potency determined in paraphenylquinone writhing test in mice. A general note: In writhing tests, fewer writhes than in controls are read as antinociception.

Structures are written as SMILES.

Take `C#CCOc1ccc2c3c1O[C@@]1(C)C(=O)C=C[C@@](OCCCc4ccccc4)(C(NC)C2)[C@@]31CCC` (stereo not given in full): the Ki turned out to be 24.1 nM in experiment [1], 13.1 nM in experiment [2] and 0.73 nM at Mu-type opioid receptor. The results for the ED50 with Mus musculus [3], with Mus musculus [4] and in the experiment on Mus musculus [5] were 38 µg/kg, 21 µg/kg and 9 µg/kg, respectively.

With `CCC[C@]12c3c4ccc(OC)c3O[C@@]1(C)C(=O)CC[C@@]2(OC)C(NC)C4` (stereo not given in full), the inhibitory constant (Ki) in experiment [1] turned out to be 26.9 nM; in experiment [2] it was 13.3 nM; on Mu-type opioid receptor, 0.15 nM. Moreover, the ED50 in the experiment on Mus musculus [3] came to 30 µg/kg; in the experiment with Mus musculus [4], 30 µg/kg; with Mus musculus [5], 9 µg/kg.

Take `CCC[C@]12c3c4ccc(OC)c3O[C@@]1(C)C(=O)C=C[C@@]2(OCCCc1ccccc1)C(NC)C4` (stereo not given in full): the results for the Ki (in experiment [1]; in experiment [2]; on Mu-type opioid receptor) were 25 nM, 6.33 nM and 0.62 nM, respectively. Further, the 50% effective dose (ED50) in the experiment with Mus musculus [3] stood at 2.6 µg/kg; in the experiment with Mus musculus [4], 4.4 µg/kg; in the experiment on Mus musculus [5], 1.7 µg/kg.

As to `CCC[C@@]12c3c(ccc(OC)c3OC)CC(NC)[C@]1(OCCCc1ccccc1)C=CC(=O)[C@H]2C` (stereo not given in full) [listing 1 of 2 here], the ED50 with Mus musculus [3] stood at 22 µg/kg; in the experiment with Mus musculus [4] it was 14 µg/kg; in the experiment on Mus musculus [5] it was 2.3 µg/kg.

As to `CCC[C@@]12c3c(ccc(OC)c3OC)CC(NC)[C@]1(OCCCc1ccccc1)C=CC(=O)[C@H]2C` (stereo not given in full) [listing 2 of 2 here], the values for the Ki (in experiment [1]; in experiment [2]; on Mu-type opioid receptor) were 2.26 nM, 0.76 nM and 0.65 nM, respectively.

For the compound `CCC[C@]12c3c4ccc(O)c3O[C@@]1(C)C(=O)C=C[C@@]2(OCCCc1ccccc1)C(NC)C4` (stereo not given in full), the Ki in experiment [1] turned out to be 0.4 nM; in experiment [2], 0.14 nM; on Mu-type opioid receptor, 0.2 nM. Also, the values for the ED50 in the experiment with Mus musculus [3], with Mus musculus [4] and in the experiment on Mus musculus [5] were 0.1 µg/kg, 0.08 µg/kg and 0.16 µg/kg, respectively.

A word on the Ki: it is the dissociation constant of the complex between target and ligand, obtained from inhibition or displacement. A low value points to tighter binding. Broadly, the ED50 is the dose that gives a 50% effect, or the effect in half of the subjects. Lower therefore signals greater potency.
